# Laboratory results taken from ChEMBL document CHEMBL5338760, “Ψ and χ Angle Constrains at the C-Terminus Trp Position of the Melanotropin Tetrapeptide Ac-His-d-Phe-Arg-Trp-NH2 Lead to Potent and Selective Agonists at hMC1R and hMC4R” (J Med Chem, 2023).
# The chains behind the UniProt entries cited, without tags or fusion partners. Where a name states a change or a piece, a line headed by the entry shows the natural chain unless it says otherwise.
# UniProt Q01726: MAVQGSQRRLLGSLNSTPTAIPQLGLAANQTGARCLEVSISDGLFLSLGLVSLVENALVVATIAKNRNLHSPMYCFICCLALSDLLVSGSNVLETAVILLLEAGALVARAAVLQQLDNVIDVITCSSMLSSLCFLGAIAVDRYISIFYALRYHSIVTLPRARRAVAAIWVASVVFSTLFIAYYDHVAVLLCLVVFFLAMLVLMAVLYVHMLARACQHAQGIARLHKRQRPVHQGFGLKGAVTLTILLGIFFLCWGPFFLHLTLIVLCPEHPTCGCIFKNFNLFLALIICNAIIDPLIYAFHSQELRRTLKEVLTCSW
# UniProt P41968: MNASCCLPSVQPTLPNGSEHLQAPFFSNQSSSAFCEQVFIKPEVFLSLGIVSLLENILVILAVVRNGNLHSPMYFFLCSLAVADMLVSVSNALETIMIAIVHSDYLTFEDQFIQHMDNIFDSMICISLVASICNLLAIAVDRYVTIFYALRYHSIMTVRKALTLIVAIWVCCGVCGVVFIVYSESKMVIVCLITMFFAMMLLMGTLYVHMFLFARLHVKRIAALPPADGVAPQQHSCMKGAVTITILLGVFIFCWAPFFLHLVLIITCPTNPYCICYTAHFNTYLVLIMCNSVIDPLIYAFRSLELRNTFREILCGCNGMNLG
# UniProt P33032: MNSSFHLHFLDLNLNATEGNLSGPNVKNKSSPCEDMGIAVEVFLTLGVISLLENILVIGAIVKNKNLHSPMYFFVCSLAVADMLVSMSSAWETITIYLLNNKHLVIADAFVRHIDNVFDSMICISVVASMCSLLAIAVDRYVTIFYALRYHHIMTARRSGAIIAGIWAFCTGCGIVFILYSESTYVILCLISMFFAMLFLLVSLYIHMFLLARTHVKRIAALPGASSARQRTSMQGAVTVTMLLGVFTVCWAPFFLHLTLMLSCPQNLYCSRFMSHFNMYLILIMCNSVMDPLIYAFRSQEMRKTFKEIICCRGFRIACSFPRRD
# Experiments:
# [1] = molecular target: T1, Melanocyte-stimulating hormone receptor (Homo sapiens, UniProt Q01726); experiment: Displacement of [I125] NDP-alpha-MSH from human MC1R stably overexpressing in HEK293 cells in presence of [I125] labeled NDP-alpha-MSH treated at 10 uM for 40 mins measured by microbeta 2 microplate counter analysis relative to control; format: cell-based
# [2] = molecular target: T1, Melanocyte-stimulating hormone receptor; experiment: Agonist activity at human MC1R stably overexpressing in HEK293 cells assessed as intracellular acumulation of cAMP level incubated at 10 uM for 30 mins measured by microbeta 2 microplate counter analysis relative to MT-II; format: functional, cell-based
# [3] = molecular target: T2, Melanocortin receptor 3 (Homo sapiens, UniProt P41968); experiment: Displacement of [I125] NDP-alpha-MSH from human MC3R stably overexpressing in HEK293 cells in presence of [I125] labeled NDP-alpha-MSH treated at 10 uM for 40 mins measured by microbeta 2 microplate counter analysis relative to control; format: cell-based
# [4] = molecular target: T2, Melanocortin receptor 3; experiment: Agonist activity at human MC3R stably overexpressing in HEK293 cells assessed as intracellular acumulation of cAMP level incubated at 10 uM for 30 mins measured by microbeta 2 microplate counter analysis relative to MT-II; format: functional, cell-based
# [5] = molecular target: T3, Melanocortin receptor 5 (Homo sapiens, UniProt P33032); experiment: Displacement of [I125] NDP-alpha-MSH from human MC5R stably overexpressing in HEK293 cells in presence of [I125] labeled NDP-alpha-MSH treated at 10 uM for 40 mins measured by microbeta 2 microplate counter analysis relative to control; format: cell-based
# [6] = molecular target: T3, Melanocortin receptor 5; experiment: Agonist activity at human MC5R stably overexpressing in HEK293 cells assessed as intracellular acumulation of cAMP level incubated at 10 uM for 30 mins measured by microbeta 2 microplate counter analysis relative to MT-II; format: functional, cell-based
Structure (SMILES),Activity [1],Emax ([2]; filed as agonist),Activity [3],Emax ([4]; filed as agonist),Activity [5],Emax [6],Emax [2],Emax [4],Activity ([5]; filed as agonist),Activity ([3]; filed as agonist)
CC(=O)N[C@@H](Cc1c[nH]cn1)C(=O)N[C@H](Cc1ccccc1)C(=O)N[C@@H](CCCNC(=N)N)C(=O)N[C@H]1Cn2nncc2CNC1=O,,,0%,55%,,0%,,,48%,
CC(=O)N[C@@H](Cc1c[nH]cn1)C(=O)N[C@H](Cc1ccc(C(F)(F)F)cc1)C(=O)N[C@@H](CCCNC(=N)N)C(=O)N[C@H]1Cc2c([nH]c3ccccc23)CNC1=O,,,,,,0%,,0%,100%,43%
CC(=O)N[C@@H](Cc1c[nH]cn1)C(=O)N[C@H](Cc1ccccc1)C(=O)N[C@@H](CCCNC(=N)N)C(=O)N[C@H]1Cc2ccccc2CNC1=O,0%,,0%,,0%,0%,0%,0%,,

# Continued, values first:
Activity [1],Emax ([2]; filed as agonist),Activity [3],Emax ([4]; filed as agonist),Activity [5],Emax [6],Emax [2],Emax [4],Activity ([5]; filed as agonist),Activity ([3]; filed as agonist),Structure (SMILES)
0%,100%,0%,57%,0%,0%,,,,,CCCC[C@H](NC(=O)[C@@H](Cc1ccccc1)NC(=O)[C@H](Cc1c[nH]cn1)NC(C)=O)C(=O)N[C@H]1Cc2c([nH]c3ccccc23)CNC1=O
0%,,0%,,0%,0%,0%,0%,,,CCCC[C@H](NC(=O)[C@@H](Cc1ccccc1)NC(=O)[C@H](Cc1c[nH]cn1)NC(C)=O)C(=O)N[C@H]1Cn2nncc2CNC1=O
0%,,0%,,0%,0%,0%,0%,,,CCCC[C@H](NC(=O)[C@@H](Cc1ccccc1)NC(=O)[C@H](Cc1c[nH]cn1)NC(C)=O)C(=O)N[C@H]1Cc2ccccc2CNC1=O
